Measured values reported in publication PMC12155096 (International Journal of Molecular Sciences, 2025).

Chains of the proteins cited; added tags and fusions are not shown.
UniProt P08684, whole entry: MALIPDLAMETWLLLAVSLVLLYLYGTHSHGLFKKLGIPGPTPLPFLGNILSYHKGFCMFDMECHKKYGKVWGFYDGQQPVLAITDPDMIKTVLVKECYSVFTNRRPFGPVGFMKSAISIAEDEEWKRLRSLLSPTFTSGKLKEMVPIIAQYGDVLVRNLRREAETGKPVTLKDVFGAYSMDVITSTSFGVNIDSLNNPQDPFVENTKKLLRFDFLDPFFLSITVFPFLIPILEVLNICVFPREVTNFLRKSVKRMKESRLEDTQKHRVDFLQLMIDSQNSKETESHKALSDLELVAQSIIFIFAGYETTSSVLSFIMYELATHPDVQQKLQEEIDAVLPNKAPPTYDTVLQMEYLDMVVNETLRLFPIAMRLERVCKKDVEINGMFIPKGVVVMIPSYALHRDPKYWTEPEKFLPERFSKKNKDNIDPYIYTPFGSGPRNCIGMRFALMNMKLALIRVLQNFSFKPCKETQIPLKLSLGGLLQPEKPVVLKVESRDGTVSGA
UniProt P08659, whole entry: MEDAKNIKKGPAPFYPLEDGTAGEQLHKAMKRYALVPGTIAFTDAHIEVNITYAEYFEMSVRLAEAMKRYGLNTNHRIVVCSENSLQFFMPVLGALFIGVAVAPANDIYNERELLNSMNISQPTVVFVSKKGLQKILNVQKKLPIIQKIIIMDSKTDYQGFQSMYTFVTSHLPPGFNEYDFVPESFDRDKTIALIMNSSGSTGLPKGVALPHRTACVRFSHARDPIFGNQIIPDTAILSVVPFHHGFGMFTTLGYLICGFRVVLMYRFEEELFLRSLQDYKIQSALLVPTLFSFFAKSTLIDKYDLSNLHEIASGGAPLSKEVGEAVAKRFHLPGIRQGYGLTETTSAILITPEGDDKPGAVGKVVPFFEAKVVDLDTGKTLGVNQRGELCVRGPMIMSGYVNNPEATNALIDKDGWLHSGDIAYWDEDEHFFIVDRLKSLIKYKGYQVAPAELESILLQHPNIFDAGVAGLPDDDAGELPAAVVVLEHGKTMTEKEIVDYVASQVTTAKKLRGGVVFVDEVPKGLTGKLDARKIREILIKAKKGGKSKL

Assays:
CYP3A4 = CYP3A4 (Homo sapiens, UniProt P08684)
[1] = target: Photinus pyralis (firefly) luciferase (Photinus pyralis, UniProt P08659)

Row | Compound | CYP3A4 Efficacy (in parenthesis) (CYP3A4) | Luciferase IC50 (half-maximal inhibitory concentration) [1]
1 | CCC(C)n1ncn(-c2ccc(N3CCN(c4ccc(OCC5COC(Cn6cncn6)(c6ccc(Cl)cc6Cl)O5)cc4)CC3)cc2)c1=O (centres unmarked) [Itraconazole] | 0.13 ± 0.04 (-76 ± 8) % | 
2 | CCN[C@@H]1C[C@H](N)[C@@H](O[C@H]2OC(CN)=CC[C@H]2N)[C@H](O)[C@H]1O[C@H]1OC[C@](C)(O)[C@H](NC)[C@H]1O.CCN[C@@H]1C[C@H](N)[C@@H](O[C@H]2OC(CN)=CC[C@H]2N)[C@H](O)[C@H]1O[C@H]1OC[C@](C)(O)[C@H](NC)[C@H]1O.O=S(=O)(O)O.O=S(=O)(O)O.O=S(=O)(O)O.O=S(=O)(O)O.O=S(=O)(O)O [Netilmicin sulfate] |  | Inactive
